Antibody variant affinities, Ab-14 heavy chain, assay B

Target peptide (SARS-CoV-2 spike, HR2 region): PDVDLGDISGINAS

Each scFv is VH, three GGGGS repeats, VL, as in the parent Ab-14, and differs from it in the CDRs of the heavy chain only.
VH: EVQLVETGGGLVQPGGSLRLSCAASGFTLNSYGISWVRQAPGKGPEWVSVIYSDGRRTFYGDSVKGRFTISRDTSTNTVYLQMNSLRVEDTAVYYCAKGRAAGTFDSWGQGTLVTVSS
VL: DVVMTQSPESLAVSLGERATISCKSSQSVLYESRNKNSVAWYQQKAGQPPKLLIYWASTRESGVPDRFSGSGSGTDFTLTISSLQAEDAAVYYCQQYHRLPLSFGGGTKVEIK

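The starting antibody came from a phage panning campaign against this peptide. This is the validation round: designs drawn from the data on random variants, tested in the same kind of assay. Several design methods are mixed in this list. The scFvs were displayed on barcoded MATa yeast, the peptide on MATalpha yeast. Mating (16 h, 30 °C) was followed by selection of diploids and sequencing of their barcodes. Each replicate has its own calibration line, from reference interactions of the BCL2 family. There are six technical replicates.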

The parent's heavy chain CDRs are GFTLNSYGIS, VIYSDGRRTFYGDSVK, GRAAGTFDS; each variant's own CDRs replace them letter for letter.
Variants here have at most six changes.
Scale: log10 of Kd in nM, estimated from mating counts; low values are strong binders.
The mean shown is taken over the replicates in which the pair was detected.
"nd" marks a missing value. The strain was present, yet no cells mated with the target were sequenced in that replicate, which points to weak or no binding.
Entries are sorted by rising average, undetected variants last.
Nonspecific signal, from three strains lacking the peptide, appeared in 1% of pairings of all heavy chain designs, centred on 2.08 (5% of these signals below 0.84); values are not corrected for it. For each scFv, signals with the empty controls are counted beside the result.
A sequence measured in both rounds can read differently, since the two assays cover different ranges.
The authors' rule: three or more of the six replicates give a measured affinity, fewer mean a poor binder.
The parent sequence was in this pool as ten entries: three were never detected, three once, and four in most replicates, with averages from 0.34 to 2.37.

GFNLNEYGIS | VIYADGRRTFYADSVK | GEVAGTFDS: -0.91, -0.70, -1.04, -1.21, -1.12, -0.91 (mean -0.98; controls 0 of 18).
GFDLNEYGIS | VIYADGMRTFYADSVK | GQAAGTFDS: 0.13, -0.96, -1.07, -0.73, -1.13, -0.71 (mean -0.75; controls 0 of 18).
GFTLNEYGIS | VIYADGRRTFYGDSVK | GRAAGTFDV: 0.15, -0.49, -0.49, -0.24, -0.65, -0.25 (mean -0.33; controls 1 of 18).
GFDLNEYGIS | VIYADGRRTFYSDSVK | GNAAGTFDV: -0.22, -0.16, -0.17, -0.64, -0.41, 0.13 (mean -0.24; controls 0 of 18).
GFSLNSYGIS | VIYSDGRRTAYSDSVK | GQAAGTFDS: -0.25, -0.49, -0.27, -0.34, -0.06, 0.14 (mean -0.21; controls 1 of 18).
GFSLNSYGIS | VIYSDGKRTFYGDNVK | GREAGTFDS: 0.02, -0.15, -0.19, -0.43, 0.05, -0.17 (mean -0.14; controls 0 of 18).
GFTLNEYGIS | VIYSDGRRTFYGDSVK | GQIAGTFDS: -0.52, -0.53, 0.16, -0.31, 0.93, -0.16 (mean -0.07; controls 0 of 18).
GFTLNSYGIS | VIYSDGRRTAYGDSVK | GRGAGTFES: 0.17, 0.04, -0.06, 0.48, -0.51, -0.31 (mean -0.03; controls 0 of 18).
GFDLNTYGIS | VIYSDGRRTFYHDSVK | GQAAGTFDS: 0.25, 0.02, 0.22, -0.33, -0.03, -0.22 (mean -0.02; controls 0 of 18).
GFDLNSYGIS | VIYSDGRRTFYGDSVK | GRAAGRFWS: 0.45, 0.30, -0.22, 0.02, -0.10, 0.39 (mean 0.14; controls 0 of 18).
GFTLDSYGIS | VIYADGRRTFYGDSVK | GKAAGTFDS: 0.30, 0.10, 0.34, 0.35, 0.23, -0.25 (mean 0.18; controls 1 of 18).
KFDLNSYGIS | VIYSDGKRTFYGDSVK | GREAGTFDS: 0.18, 0.30, -0.01, nd, nd, 0.49 (mean 0.24; controls 0 of 18).
GFTLNSYGIS | VIYSDGRRTFYDDSVK | GQTAGTFDD: 0.12, 0.40, -0.15, nd, nd, 0.82 (mean 0.30; controls 0 of 18).
GFELNKYGIS | VIYSDGRRTFYGDSVK | GRTAGTFDS: 0.76, 0.70, 0.34, 0.40, 0.34, 0.50 (mean 0.51; controls 0 of 18).
GFGLNEYGIS | VIYSDGRRTFYTDRVK | GEAAGTFDS: 0.22, 0.42, 1.28, 0.54, -0.29, 1.17 (mean 0.56; controls 1 of 18).
GFTLNSYGIS | VIYSDGRRTFYSDSVK | GEAAGTFDK: -0.16, 0.40, 0.96, 1.45, -0.01, 0.77 (mean 0.57; controls 0 of 18).
GFLLNSYGIS | VIYSDGRRTFYDDSVK | GQTAGTFDS: 1.05, 0.54, 1.03, nd, -0.19, 0.53 (mean 0.59; controls 0 of 18).
GFDLNSYGIS | VIYSDGRRTFYGDQVK | GEAAGTFDS: 0.55, 0.91, 0.40, 0.59, 0.76, 0.38 (mean 0.60; controls 1 of 18).
GFTLNEYGIS | VIYSDGRRTFYKDSVK | GRAGGTFDS: nd, nd, nd, nd, 0.31, 1.27 (mean 0.79; controls 0 of 18).
GFDLNEYGIS | VIYSDGHRTFYGDSVK | GRTAGTFDS: nd, nd, 0.22, nd, 1.37, nd (mean 0.79; controls 0 of 18).
GFDLQSYGIS | VIYSDGRRTFYLDSVK | GRAAGTFDS: 1.30, 0.86, 0.49, 0.22, 2.06, 0.75 (mean 0.95; controls 0 of 18).
GFNLNSYGIS | VIYSDGRRTFYGDRVK | GRTAGTFDS: 1.86, 0.69, 0.92, 0.76, 0.76, 1.87 (mean 1.14; controls 0 of 18).
GFGLNSYGIS | VIYSDGRRTFYIDSVK | GRTAGTFDS: 2.08, 0.90, 0.86, nd, 0.53, 1.65 (mean 1.20; controls 1 of 18).
GFTLNSYGIS | VIYSDGRRVFYGDSVK | GDAAGTFDS: 1.83, 1.07, 1.20, 1.70, 1.18, 0.66 (mean 1.28; controls 2 of 18).
GFTLNDYGIS | VIYSDGRRTFYIDSVK | GRAAGTFDK: nd, 1.02, 1.66, 1.35, 0.72, 1.81 (mean 1.31; controls 0 of 18).
GFTLNSYGIS | VIYSDGRRTFYGDKVK | GRAAGTFDT: 1.49, nd, nd, 0.89, 1.77, 1.45 (mean 1.40; controls 0 of 18).
GFTLNSYGIS | VIYSDGRRTFYLDSVK | GSAAGTFDV: 0.60, 0.46, 1.24, 2.70, 1.91, 1.68 (mean 1.43; controls 0 of 18).
GFTLESYGIS | VIYSDGRRTFYGDSVK | GRAAGTFDV: 1.44, 1.71, nd, nd, 1.76, 1.17 (mean 1.52; controls 0 of 18).
GFTLNDYGIS | VIYSDGRRVFYGDDVK | GRAPGTFDY: nd, nd, nd, nd, 2.31, nd (controls 0 of 18).
GFVLNSYGIS | VIYSDGRRTFYKDSVK | GEAAGTFDS: nd, nd, 3.14, 1.92, 3.48, nd (mean 2.85; controls 0 of 18).
GFTLNSYGIS | VIYEDGERGFYGDSVS | GRLAGTFDS: nd, nd, nd, nd, nd, 3.02 (controls 0 of 18).
GFTLNSYGIS | VIYSDGRRTFYMDSVK | GRAAGTFDS: nd, nd, nd, nd, nd, 3.57 (controls 0 of 18).
GFTLNDYGIS | VIYSDGERTFYGDSVK | GRAAGTSDS: nd, nd, nd, nd, nd, nd (controls 0 of 18).
GFTINSYGIS | VIYSDGYRTFYDDSVK | GQAASTFDS: nd, nd, nd, nd, nd, nd (controls 0 of 18).
GFMLNSYGIS | VIYSDGRRTFYGDSVK | GYWCGVFDS: nd, nd, nd, nd, nd, nd (controls 0 of 18).
KFNLNSYGIS | VIYSDGRRTFYIDSVK | GRTAGTFDS: nd, nd, nd, nd, nd, nd (controls 0 of 18).
GFTLNSYGIS | VIYADGRRTFYEDSVK | GEAIGTFDS: nd, nd, nd, nd, nd, nd (controls 0 of 18).
GFTLNSYGIS | VIYSDGRRTFYGDDVK | GRAALTFDS: nd, nd, nd, nd, nd, nd (controls 0 of 18).
GFDDNSYGRS | VIYSDGRRTFYGDSVK | GRAAGTFDS: nd, nd, nd, nd, nd, nd (controls 0 of 18).
GFTLNSYGIS | VIYSDGRRTFYGDSVK | NRAAGTFDW: nd, nd, nd, nd, nd, nd (controls 0 of 18).
GFTLNQYGIS | VIYSDGRRTFYSDSVK | GRAMGFFDS: nd, nd, nd, nd, nd, nd (controls 0 of 18).
GFHLNKYGIS | VIYSDGRRTFYGDSVK | GRAAGFFDS: nd, nd, nd, nd, nd, nd (controls 0 of 18).
GFTPNSYGIS | VIYSDGRRTFYGDSVK | GRYAATFDS: nd, nd, nd, nd, nd, nd (controls 0 of 18).
GFTLNSYGIS | VIYSDGVRTFYGDSVK | GKAAGYFRS: nd, nd, nd, nd, nd, nd (controls 0 of 18).
GFRLNSYGIT | VIYSDGRRTFYNDSVK | GTDATTFDS: nd, nd, nd, nd, nd, nd (controls 0 of 18).
CFTLNSYGIS | VIYSDGRRTFYDDVVK | YQLAGTFDS: nd, nd, nd, nd, nd, nd (controls 0 of 18).
GFTLNSYGIS | VIYSDGRRTFYGDSVK | GVAAGTWDS: nd, nd, nd, nd, nd, nd (controls 0 of 18).
GFTLNQYGIS | VILSDGMRTFYTDSVK | GRAAGFFDS: nd, nd, nd, nd, nd, nd (controls 0 of 18).
GFTLELYGIS | VIYSDGRRTFYGDSVK | GRAADTFDS: nd, nd, nd, nd, nd, nd (controls 0 of 18).
GETLNEYGIS | VIYSDGRRTFYGDSVK | GRNSATFDS: nd, nd, nd, nd, nd, nd (controls 3 of 18).
PFTLDSYGIS | VIYSDGRRTFYGDSVK | ARAAMTALS: nd, nd, nd, nd, nd, nd (controls 0 of 18).

Excerpt, the final 5 entries:

{"CDR-H1": "GFTLNSYGIS", "CDR-H2": "VIYSDGRRTFYGDSVK", "CDR-H3": "GVAAGTWDS", "log10 Kd (nM) by replicate": "nd, nd, nd, nd, nd, nd", "mean, log10 nM": "nd", "control signals": "0/18"}
{"CDR-H1": "GFTLNQYGIS", "CDR-H2": "VILSDGMRTFYTDSVK", "CDR-H3": "GRAAGFFDS", "log10 Kd (nM) by replicate": "nd, nd, nd, nd, nd, nd", "mean, log10 nM": "nd", "control signals": "0/18"}
{"CDR-H1": "GFTLELYGIS", "CDR-H2": "VIYSDGRRTFYGDSVK", "CDR-H3": "GRAADTFDS", "log10 Kd (nM) by replicate": "nd, nd, nd, nd, nd, nd", "mean, log10 nM": "nd", "control signals": "0/18"}
{"CDR-H1": "GETLNEYGIS", "CDR-H2": "VIYSDGRRTFYGDSVK", "CDR-H3": "GRNSATFDS", "log10 Kd (nM) by replicate": "nd, nd, nd, nd, nd, nd", "mean, log10 nM": "nd", "control signals": "3/18"}
{"CDR-H1": "PFTLDSYGIS", "CDR-H2": "VIYSDGRRTFYGDSVK", "CDR-H3": "ARAAMTALS", "log10 Kd (nM) by replicate": "nd, nd, nd, nd, nd, nd", "mean, log10 nM": "nd", "control signals": "0/18"}

The measurements come from Li et al. 2023 (doi:10.1038/s41467-023-39022-2) through the FLAb antibody collection.